Each structure is given as a SMILES string. pIC50: −log10 of the molar value.

Protein sequences, listed by entry. Tags and fused reporters are not part of them.
UniProt P27338, whole entry: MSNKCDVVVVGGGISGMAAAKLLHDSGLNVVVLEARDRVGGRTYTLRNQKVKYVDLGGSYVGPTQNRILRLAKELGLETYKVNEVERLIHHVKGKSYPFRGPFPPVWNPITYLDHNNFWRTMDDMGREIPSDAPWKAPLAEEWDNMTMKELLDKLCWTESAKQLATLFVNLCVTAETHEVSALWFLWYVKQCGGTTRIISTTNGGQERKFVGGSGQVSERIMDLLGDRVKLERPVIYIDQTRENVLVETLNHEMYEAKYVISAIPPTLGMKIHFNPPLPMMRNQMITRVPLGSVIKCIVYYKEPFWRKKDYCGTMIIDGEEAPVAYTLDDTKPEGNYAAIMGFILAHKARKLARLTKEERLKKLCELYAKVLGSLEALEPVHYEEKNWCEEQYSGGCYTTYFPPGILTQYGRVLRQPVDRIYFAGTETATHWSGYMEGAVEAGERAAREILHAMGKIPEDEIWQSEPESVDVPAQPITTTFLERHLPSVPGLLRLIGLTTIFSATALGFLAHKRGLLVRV

Test [1] has as its target Amine oxidase [flavin-containing] B (Homo sapiens, UniProt P27338). Format: cell-based, BTI-TN-5B1-4.
A further test is filed under the species Homo sapiens. Kind of test: Selectivity index, ratio of IC50 for human recombinant MAOA to IC50 for human recombinant MAOB.

As for `O=C(Nc1ccc(O)cc1)c1cc2ccccc2oc1=O`, the pIC50 (commonly −log10 of the IC50, conventionally taken in molar units) in test [1] was 6.10. In addition, the Ratio IC50 in the test listed under Homo sapiens is greater than 125.

The record behind these values is ChEMBL document CHEMBL1153941, “Synthesis, molecular modeling, and selective inhibitory activity against human monoamine oxidases of 3-carboxamido-7-substituted coumarins” (J Med Chem, 2009).
